Screening data from PubChem.
Sampled rows, rich in hits. Any-hit rate of the full collection: about 4.2%.
MC4R antagonist – antagonists of human melanocortin 4 receptor (MC4R). inhibition, % at 6.5 µM. MC4R-expressing cells, MTII-stimulated cAMP, LANCE TR-FRET. P32245. AID 540295. hit rate 0.48% among 360,000;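 active means inhibition above its plate's cutoff, the mean of tested wells on that plate plus 3 SD, cut at about 29% in these data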;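 further: 0% = Melanotan II alone and 100% = Melanotan II plus saturating MCL0020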
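Material – human MC4R-expressing U2OS cells · Repeats – no replicates · Detection – TR-FRET with Eu-cAMP and labeled anti-cAMP, 671 nm · Times – compound 30 min, challenge 1 h, detection 1 h · Compound – single nominal compound dose of 6.5 µM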
NALP1 inh – NALP1 inhibition. S. cerevisiae NALP1/ASC/caspase-1 growth, X-gal OD620, 72 h. inhibition, % at 10 µM. hit rate 0.61% among 280,000; in the data active means inhibition mostly above about 24%, no sharp cut-off; inactive means mostly below about 32%
ALR inh – blocks human ALR sulfhydryl oxidase activity; P55789; purified ALR, DTT oxidation, H2O2 HRP-luminol luminescence; inhibition, % (test concentration not listed); 3.8% of 290,000 active; AID 485317;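 active = mean and each replicate at 75% or more; inconclusive = only one of the two met; inactive = neither met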;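 also: stock transfer was 7.5 nL into about 7.5 µL; 0% = neutral wells and 100% = wells with inactivated enzyme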
HDAC3 inhib – blocks human histone deacetylase 3 | recombinant HDAC3, fluorogenic peptide/trypsin coupled, fluorescence | O15379 | AID 2718 | hit rate 0.15% among 320,000 | inhibition, % at 8.3 µM; in the data active means inhibition above about 26%, passing the limit was not always enough; inconclusive means no clear call, values can overlap the other calls
MC4R barr agon – agonists of human melanocortin 4 receptor (MC4R) beta-arrestin; P32245; U2OS MC4R beta-arrestin complementation, luminescence; percent of melanotan II response, DMSO zero; activation, % at 8.9 µM; hit rate 0.98% among 360,000;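 active means activation above a per-plate cutoff, the mean activation of sample wells on that plate plus 3 SD, cut at about 8% in these data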
UUG fidelity – modulators of yeast start codon fidelity, primary screen, whole organism, S. cerevisiae, single point, plate reader | AID 602363, 2012 | actives 0.13% (n = 350,000) | activity score, % at 18.7 µM | S. cerevisiae UUG-firefly luciferase reporter, luminescence/redox ratio;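 active means replicate mean at a twofold rise or more, about +100% in these data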;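 further: firefly luciferase made from a UUG start codon reports start codon fidelity; reporter light over untreated wells divided by growth signal over untreated wells; some hits fall short of that in this replicate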
* = called active by the depositor; ? = inconclusive; / = no result given.

The line under a structure holds: MC4R antagonist, NALP1 inh, ALR inh, HDAC3 inhib, MC4R barr agon, UUG fidelity
COc1ccc(NC(=O)N(C)C[C@H]2Oc3c(NC(=O)NC(C)C)cccc3C(=O)N([C@@H](C)CO)C[C@@H]2C)cc1
    /, /, /, /, /, 0
CC(=O)Nc1cccc(NC(=O)CSc2nc(=O)n(Cc3ccncc3)c3c2CCC3)c1
    6, /, 99*, -4, 1, -9
CC(=O)Nc1cccc(NC(=O)CSc2nc(=O)n(Cc3ccccn3)c3c2CCC3)c1
    8, /, 98*, 10, -2, 1
CCOc1ccccc1NC(=O)CSc1nc(=O)n(Cc2ccccn2)c2c1CCC2
    9, /, /, -10, -3, 5
C[C@H]1CN([C@@H](C)CO)C(=O)c2cc(C3=CCCCC3)cnc2O[C@H]1CN(C)Cc1ccccc1
    /, /, /, /, /, -12
Cc1cccc(Nc2c3c(nc4ccccc24)CCC3)c1
    -14, 17, 63, 7, -2, -12
COc1ccccc1Nc1c2c(nc3ccc(N)cc13)CCCC2
    -4, /, 99*, 8, -3, -17
COc1cc(Nc2c3c(nc4ccccc24)CCC3)cc(OC)c1OC
    -12, 0, 99*, 3, -2, 11
COc1ccc(OC)c(Nc2c3c(nc4ccccc24)CCC3)c1
    -26, 39, 98*, 7, -1, 13
O=C(c1ccccc1F)N1C[C@@H]2[C@H](c3ccccc31)[C@@H](CO)N2Cc1ccc2c(c1)OCO2
    /, /, /, /, /, -5
C[C@@H]1CN([C@@H](C)CO)C(=O)c2cc(NC(=O)Nc3cccc4ccccc34)ccc2O[C@H]1CN(C)C(=O)Nc1ccc(F)cc1
    /, /, /, /, /, -10
C[C@H](CO)N1C[C@H](C)[C@@H](CN(C)S(=O)(=O)c2ccc(Cl)cc2)Oc2ccc(NS(=O)(=O)c3ccc(Cl)cc3)cc2CC1=O
    /, /, /, /, /, -3
Cc1ccc(Nc2cc(C)nc3ncnn23)cc1
    -6, -14, -5, -7, -1, -24
Cc1cc(Nc2ccc(N3CCC(C)CC3)cc2)n2ncnc2n1
    6, 9, 90*, 7, -1, -8
CC(C)(C)C1CCc2onc(C(=O)Nc3cnn(Cc4ccc(F)cc4)c3)c2C1 (stereo unspecified)
    0, 34, -4, -2, 7, 0
CC(C)(C)C1CCc2onc(C(=O)Nc3ccc(F)cc3F)c2C1 (stereo unspecified)
    2, 1, -2, 4, 8.3*, -8
FC(F)(F)c1ccc2c(c1)NCC1CCCN21 (stereo unspecified)
    1, 3, 98*, 1, 0, /
COc1ccc(-c2ccc3c(c2)O[C@H](CN(C)C)[C@@H](C)CN([C@@H](C)CO)S3(=O)=O)cc1
    /, /, /, /, /, 12
CCOC(=O)Cc1c(C)nc2cc(C)nn2c1C
    -4, -78, -31, 2, -1, -11
CCOC(=O)Cc1nn2c(=O)cc(C)nc2s1
    0, 14, 93*, 4, 2, -18
COCCNC(=O)C[C@@H]1C[C@@H]2c3cc(NC(=O)COC)ccc3O[C@@H]2[C@@H](CO)O1
    /, /, /, /, /, 5
COc1ccccc1N/C(=N/S(=O)(=O)c1ccc(C)cc1)c1ccc(Cl)cc1
    30*, 8, -3, 8, 0, 4
O=C(COC(=O)c1ccc(F)cc1Cl)NC1CCCCCCC1
    11, /, 0, -1, 8.6*, 10
O=C(COC(=O)c1cc(F)c(F)cc1Cl)NC1CCCCCC1
    16, /, /, /, 4, -15
CCOC(=O)C1C(=O)C(C(C)=O)C(=O)CC1CC(C)SCC (stereo unspecified)
    4, 44*, -4, -1, -1, -10
COc1cccc(-c2cc(C(F)(F)F)n3nc(N)nc3n2)c1
    -4, -2, 95*, 15, -1, -1
O=C(CSc1nc2ccccc2c(=O)n1Cc1ccccc1)Nc1ccc(Br)cc1C(=O)O
    9, 2, 97*, 4, 2, -7
CCCCCCn1c(SCC(=O)Nc2cc(C)on2)nc2ccccc2c1=O
    10, 36, 0, -4, 12*, /
CCCCn1c(SCC(=O)Nc2cccc(OC)c2)nc2ccc(N3CCOCC3)cc2c1=O
    11, 10, 99*, -7, -3, /
CCCCn1c(SCC(N)=O)nc2ccc(N3CCOCC3)cc2c1=O
    12, -12, 13, -5, 0, -16
CCCCNC(=O)CSc1nc2ccccc2c(=O)n1CC1COc2ccccc2O1 (stereo unspecified)
    6, -2, 7, 0, 9.4*, -9
O=C(Nc1ccccc1F)N1C[C@H]2[C@@H](c3ccccc31)[C@H](CO)N2C(=O)C1CC1
    /, /, /, /, /, -15
COCCn1c(SCC(=O)c2cccc(OC)c2)nnc1-c1ccco1
    -1, -2, 93*, 0, -1, -18
CCn1c(SCC(=O)Nc2cc(C)on2)nnc1-c1ccco1
    15, 39*, 1, -1, 0, -20
Cn1c(SCC(=O)c2cc(Cl)c(Cl)s2)nnc1-c1ccco1
    -5, 14, 98*, 9, -1, -31
C[C@@H]1CN([C@H](C)CO)C(=O)c2cc(NC(=O)Nc3ccccc3)ccc2O[C@@H](C)CCCCO[C@H]1CN(C)C
    /, /, /, /, /, 11
CCOC(=O)c1cc2c(=O)n3cccc(C)c3nc2n(Cc2ccco2)c1=NC(=O)c1ccccc1
    -3, -1, 89*, -53, 1, -9
COc1cc(/C=C2/C(=N)N3C(=NC2=O)SN=C3S(C)(=O)=O)ccc1OS(=O)(=O)c1ccc(C)cc1
    12, -3, 54, 9, -3, -2
Cc1ccc(S(=O)(=O)Oc2ccc(/C=C3/C(=N)N4C(=NC3=O)SN=C4S(C)(=O)=O)cc2)cc1
    4, 14, 98*, 2, -3, -24
CCS(=O)(=O)C1=NN2C(=N)/C(=C\c3ccc(OS(=O)(=O)c4ccccc4)cc3)C(=O)N=C2S1
    -1, -5, ?, 3, -1, -21
COc1cc(/C=C2\C(=N)N3N=C(S(C)(=O)=O)SC3=NC2=O)ccc1OS(=O)(=O)c1ccccc1
    /, 13, 91*, 3, /, /
CS(=O)(=O)C1=NSC2=NC(=O)/C(=C\c3ccc(OS(=O)(=O)c4ccccc4)cc3)C(=N)N21
    2, 10, 65, 7, -2, -27
Cc1ccc(S(=O)(=O)Oc2ccc(/C=C3\C(=N)N4N=C(S(C)(=O)=O)SC4=NC3=O)cc2)cc1
    5, 14, 92*, 3, -3, 3
CCS(=O)(=O)C1=NSC2=NC(=O)/C(=C\c3ccc(OS(=O)(=O)c4ccccc4)c(OC)c3)C(=N)N21
    14, 7, 97*, 1, -2, 3
C[C@H]1CCCCO[C@H](CN(C)Cc2ccc3c(c2)OCO3)[C@@H](C)CN([C@@H](C)CO)C(=O)c2cc(NC(=O)CCC(F)(F)F)ccc2O1
    /, /, /, /, /, 5
COCCNC(=O)c1onc(CCl)c1C(=O)OC
    1, 21, 48, 9, 0, -17
CCCCNC(=O)c1onc(CCl)c1C(=O)OC
    6, 27, 97*, 3, 0, 2

Sorted by molecular weight (high to low): five of the compounds above.
The line under a structure holds: MC4R antagonist, NALP1 inh, ALR inh, HDAC3 inhib, MC4R barr agon, UUG fidelity
C[C@H]1CCCCO[C@H](CN(C)Cc2ccc3c(c2)OCO3)[C@@H](C)CN([C@@H](C)CO)C(=O)c2cc(NC(=O)CCC(F)(F)F)ccc2O1
    /, /, /, /, /, 5
CCS(=O)(=O)C1=NSC2=NC(=O)/C(=C\c3ccc(OS(=O)(=O)c4ccccc4)c(OC)c3)C(=N)N21
    14, 7, 97*, 1, -2, 3
COc1cc(/C=C2\C(=N)N3N=C(S(C)(=O)=O)SC3=NC2=O)ccc1OS(=O)(=O)c1ccccc1
    /, 13, 91*, 3, /, /
Cc1ccc(S(=O)(=O)Oc2ccc(/C=C3\C(=N)N4N=C(S(C)(=O)=O)SC4=NC3=O)cc2)cc1
    5, 14, 92*, 3, -3, 3
CS(=O)(=O)C1=NSC2=NC(=O)/C(=C\c3ccc(OS(=O)(=O)c4ccccc4)cc3)C(=N)N21
    2, 10, 65, 7, -2, -27
